Laboratory results published in PubChem BioAssay AID588819 (The Scripps Research Institute Molecular Screening Center, 2011).
Only a part is listed here, and it is no random draw. Active and inactive are the calls of the source. No stated cut-off is given here; in the data, active means activation above about 19% (passing the limit was not always enough); inactive means the rest.

Sequences of proteins named here, by UniProt entry; tags and fusion partners are left off.
UniProt P11229, whole entry: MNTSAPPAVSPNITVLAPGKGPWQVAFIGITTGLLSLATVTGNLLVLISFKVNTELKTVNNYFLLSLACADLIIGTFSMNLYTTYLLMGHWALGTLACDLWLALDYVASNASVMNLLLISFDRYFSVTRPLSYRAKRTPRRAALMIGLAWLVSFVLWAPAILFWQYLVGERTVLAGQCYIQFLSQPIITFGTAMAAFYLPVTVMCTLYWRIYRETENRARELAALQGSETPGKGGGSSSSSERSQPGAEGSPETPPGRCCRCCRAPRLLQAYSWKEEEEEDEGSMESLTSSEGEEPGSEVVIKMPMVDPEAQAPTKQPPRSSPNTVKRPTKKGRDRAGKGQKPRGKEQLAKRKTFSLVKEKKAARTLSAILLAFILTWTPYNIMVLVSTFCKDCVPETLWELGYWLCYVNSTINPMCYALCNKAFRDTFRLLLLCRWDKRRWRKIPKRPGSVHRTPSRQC

Each compound was assayed against Muscarinic acetylcholine receptor M1 (Homo sapiens) (UniProt P11229) (assay: CHRM1 PAMs potentiating acetylcholine calcium signal – CHO-K1 cells, Fluo-8 calcium fluorescence, 1536-well, primary screen (AID 588819)). Conditions: CHO-K1 hM1, Fluo-8 calcium fluorescence, ACh EC20; at 3 µM; hits give high values; 0% = ACh EC20, 100% = maximal ACh.

Row | Compound | activation
1 | CCC(c1nnnn1C1CCCCC1)N1CCC(n2c(=O)[nH]c3ccccc32)CC1 (configuration not stated) | inactive: 2.98%
2 | CC(=O)N(c1ccccc1)C1CCNCC1 | inactive: 7.27%
3 | COc1cccc(C(c2nnnn2C2CCCCC2)N2CCC(n3c(=O)[nH]c4ccccc43)CC2)c1OC (configuration not stated) | inactive: -9.71%
4 | O=c1[nH]c2ccccc2n1C1CCN(C(c2ccnc3ccccc23)c2nnnn2C2CCCCC2)CC1 (configuration not stated) | inactive: -1.04%
5 | COc1cc(OC)cc(C(=O)NCC2(N3CCCCC3)CCCCC2)c1 | inactive: 8.49%
6 | Fc1ccccc1NC1CCN(Cc2ccccc2)CC1 | inactive: -0.94%
7 | Cc1ccc(C(=O)NCC2(N3CCCCC3)CCCCC2)o1 | inactive: 6.64%
8 | Cc1ccc(NC2(C#N)CCN(Cc3ccccc3)CC2)cc1 | inactive: 6.78%
9 | CC(C)(C)n1nnnc1C(c1ccnc2ccccc12)N1CCC(n2c(=O)[nH]c3ccccc32)CC1 (configuration not stated) | inactive: 16.6%
10 | CCN1CCC(Nc2cccc(F)c2)CC1 | inactive: -4.34%
11 | COc1ccc(C(c2nnnn2C2CCCCC2)N2CCC(n3c(=O)[nH]c4ccccc43)CC2)cc1 (configuration not stated) | inactive: 1.92%
12 | Cc1ccccc1NC1(C#N)CCN(Cc2ccccc2)CC1 | inactive: -1.1%
13 | Cn1c(=O)[nH]cc(N(CCCl)CCCl)c1=O | inactive: -9.11%
14 | CN(C)c1ccc(C(=O)NCC2(N3CCCCC3)CCCCC2)cc1 | inactive: 14.7%
15 | O=C(NCC1(N2CCCCC2)CCCCC1)c1ccco1 | inactive: 10.8%
16 | CN1CCC(Nc2ccc(F)c(Cl)c2)CC1 | inactive: 3.97%
17 | CCOc1ncccc1C(=O)NCC1(N2CCOCC2)CCCCC1 | inactive: -6.42%
18 | O=C(O)C1(Nc2ccccc2)CCN(Cc2ccccc2)CC1 | inactive: 20.7%
19 | CC(C)(C)OC(=O)N1CCC(Nc2ccccc2)CC1 | inactive: 5.55%
20 | CCCOc1ccc(C(=O)NCC2(N(C)C)CCCCC2)cc1 | inactive: -8.44%
21 | O=c1[nH]c2ccccc2n1C1CCN(C(c2cc3ccccc3o2)c2nnnn2C2CCCC2)CC1 (configuration not stated) | inactive: -0.98%
22 | COc1cccc(C(=O)N(c2cc(C)cc(C)c2)C2CCN(C(=O)OC(C)(C)C)CC2)c1 | inactive: -7.26%

Row | Compound | activation
23 | COc1cccc(C(c2nnnn2C2CCCC2)N2CCC(n3c(=O)[nH]c4ccccc43)CC2)c1OC (configuration not stated) | inactive: -2.83%
24 | COc1cc(OC)cc(C(=O)NCC2(N3CCOCC3)CCCCC2)c1 | inactive: 11.4%
25 | CCC(CO)(C(=O)OC1CN2CCC1CC2)c1ccccc1 (configuration not stated) | inactive: -23.8%
26 | CN1CCC(Nc2ccc(Cl)cc2)CC1 | inactive: 12.3%
27 | COc1cc(C(=O)NCC2(N3CCOCC3)CCCCC2)cc(OC)c1C | inactive: 12.1%
28 | CCCCn1nnnc1C(c1ccccc1)N1CCC(n2c(=O)[nH]c3ccccc32)CC1 (configuration not stated) | inactive: -13.4%
29 | O=C(NCC1(N2CCOCC2)CCCCC1)c1cc(Br)ccc1Cl | inactive: 4.74%
30 | O=c1[nH]c2ccccc2n1C1CCN(C(c2cccs2)c2nnnn2C2CCCCC2)CC1 (configuration not stated) | inactive: 0.75%
31 | O=c1[nH]c2ccccc2n1C1CCN(C(c2ccnc3ccccc23)c2nnnn2C2CCCC2)CC1 (configuration not stated) | inactive: -14.3%
32 | COc1ccc(C(=O)NCC2(N3CCOCC3)CCCCC2)cc1OC | inactive: 10%
33 | COc1cccc(C(c2nnnn2C(C)(C)C)N2CCC(n3c(=O)[nH]c4ccccc43)CC2)c1OC (configuration not stated) | inactive: -3.34%
34 | CCOC(=O)N1CCC(Nc2ccc(C)cc2)CC1 | inactive: 9.72%
35 | N/C(=N\O)c1c(N)no[n+]1[O-] | inactive: 1.8%
36 | O=c1[nH]c2ccccc2n1C1CCN(C(c2cccs2)c2nnnn2C2CCCC2)CC1 (configuration not stated) | inactive: -2.76%
37 | O=C(OC1CN2CCC1CC2)C1c2ccccc2C=Cc2ccccc21 (configuration not stated) | inactive: -25.7%
38 | CCCCn1nnnc1C(c1cccc(OC)c1OC)N1CCC(n2c(=O)[nH]c3ccccc32)CC1 (configuration not stated) | inactive: -14.1%
39 | N#Cc1ccc(C(=O)NCC2(N3CCCCC3)CCCCC2)cc1 | inactive: 4.76%
40 | CC(C)(C)OC(=O)N1CCC(N(C(=O)c2ccccc2)c2ccc(Cl)cc2)CC1 | inactive: -0.44%
41 | CN(C)C1(CNC(=O)c2cccc(C#N)c2)CCCCC1 | inactive: 10.4%
42 | Cc1cc(N(CCCl)CCCl)ccc1C=O | inactive: 7.37%
43 | CCCN1CCC(Nc2cc(OC)cc(OC)c2)CC1 | inactive: 14.1%
44 | O=c1[nH]c2ccccc2n1C1CCN(C(c2ccccc2)c2nnnn2C2CCCC2)CC1 (configuration not stated) | inactive: -9.31%

Row | Compound | activation
45 | c1ccc(CN2CCC(Nc3ccccc3)CC2)cc1 | inactive: -2.19%
46 | CC(C)(C)n1nnnc1C(c1cccc2ccccc12)N1CCC(n2c(=O)[nH]c3ccccc32)CC1 (configuration not stated) | inactive: 7.17%
47 | O=C(NCC1(N2CCCCC2)CCCCC1)c1ccc(OC(F)F)cc1 | inactive: 16.9%
48 | CC(C)(C)n1nnnc1C(c1ccccc1OC(F)(F)F)N1CCC(n2c(=O)[nH]c3ccccc32)CC1 (configuration not stated) | inactive: 3.64%
49 | N#CC1(Nc2ccccc2)CCN(CCc2ccccc2)CC1 | inactive: 12.7%
50 | O=c1[nH]c2ccccc2n1C1CCN(C(c2ccccc2OC(F)(F)F)c2nnnn2C2CCCC2)CC1 (configuration not stated) | inactive: 2.89%
51 | CCN1CCC(Nc2ccc(Cl)cc2)CC1 | inactive: -1.65%
52 | CSc1ccc(C(=O)NCC2(N3CCOCC3)CCCCC2)cc1 | inactive: 5.12%
53 | O=C(NCC1(N2CCCCC2)CCCCC1)c1cccc([N+](=O)[O-])c1 | inactive: 6.83%
54 | O=C(NCC1(N2CCCCC2)CCCCC1)c1cccc(C(F)(F)F)c1 | inactive: 6.85%
55 | O=C(NCC1(N2CCOCC2)CCCCC1)c1cc(=O)[nH]c2ccccc12 | inactive: 5.88%
56 | COc1cc(C(=O)NCC2(N3CCCCC3)CCCCC2)ccc1OC(F)F | inactive: -16.1%
57 | CCCCn1nnnc1C(c1cccc2ccccc12)N1CCC(n2c(=O)[nH]c3ccccc32)CC1 (configuration not stated) | inactive: 8.82%
58 | CC(C)c1ccc(C(=O)NCC2(N3CCOCC3)CCCCC2)cc1 | inactive: 4.18%
59 | COc1ccc(NC2CCN(C(=O)OC(C)(C)C)CC2)cc1 | inactive: 2.58%
60 | CN1CCN(CCOC(=O)C(O)(c2ccccc2)c2ccccc2)CC1 | inactive: -24%
61 | CC(C)c1ccc(NC2CCN(C(=O)OC(C)(C)C)CC2)cc1 | inactive: 0.05%
62 | CCCCn1nnnc1C(c1ccccc1OC(F)(F)F)N1CCC(n2c(=O)[nH]c3ccccc32)CC1 (configuration not stated) | inactive: 7.27%
63 | CN(C)c1cccc(C(=O)NCC2(N3CCCCC3)CCCCC2)c1 | inactive: -1.15%
64 | COc1ccc(CN(CCCl)CCCl)cc1Cl | inactive: 11.2%
65 | CCC(c1nnnn1C(C)(C)C)N1CCC(n2c(=O)[nH]c3ccccc32)CC1 (configuration not stated) | inactive: 2.19%
66 | O=C(NCC1(N2CCOCC2)CCCCC1)c1cc(F)c(F)cc1Cl | inactive: 8.31%

Row | Compound | activation
67 | COc1cc(OC)c(C(=O)NCC2(N(C)C)CCCCC2)cc1OC | inactive: 15.2%
68 | CCCCn1nnnc1C(c1ccnc2ccccc12)N1CCC(n2c(=O)[nH]c3ccccc32)CC1 (configuration not stated) | inactive: -19.4%
69 | O=C(NCC1(N2CCCCC2)CCCCC1)c1cncc(Br)c1 | inactive: 4.86%
70 | CN1CCC(Nc2cccc(F)c2)CC1 | inactive: -2.22%
71 | COc1ccc(C(c2nnnn2C2CCCC2)N2CCC(n3c(=O)[nH]c4ccccc43)CC2)cc1 (configuration not stated) | inactive: -1.19%
72 | CCCOc1ccc(C(=O)NCC2(N(C)C)CCCCC2)cc1OC | inactive: 3.22%
73 | Cc1ccc(C(=O)NCC2(N(C)C)CCCCC2)o1 | inactive: 3.86%
74 | CCC(c1nnnn1C1CCCC1)N1CCC(n2c(=O)[nH]c3ccccc32)CC1 (configuration not stated) | inactive: 2.13%
75 | CC(C)(C)OC(=O)N1CCC(N(C(=O)c2ccccc2)c2ccc(F)cc2)CC1 | inactive: 6.1%
76 | COc1ccc(C(=O)NCC2(N3CCCCC3)CCCCC2)c(OC)c1OC | inactive: 3.59%
77 | COc1ccc(C(=O)NCC2(N3CCCCC3)CCCCC2)cc1 | inactive: 3.68%
78 | CCCCn1nnnc1C(c1cccs1)N1CCC(n2c(=O)[nH]c3ccccc32)CC1 (configuration not stated) | inactive: -2.62%
79 | O=C(NCC1(N2CCCCC2)CCCCC1)c1cccs1 | inactive: 11.8%
80 | CCCCn1nnnc1C(CC)N1CCC(n2c(=O)[nH]c3ccccc32)CC1 (configuration not stated) | inactive: -0.04%
81 | O=C(NCC1(N2CCCCC2)CCCCC1)c1ccc(=O)[nH]c1 | inactive: 0.08%
82 | Cc1cccc(NC2(C#N)CCN(Cc3ccccc3)CC2)c1 | inactive: 4.53%
83 | CSc1ccccc1C(=O)NCC1(N2CCCCC2)CCCCC1 | inactive: 8.23%
84 | Cc1cc(C)cc(N(C(=O)c2ccccc2)C2CCN(C(=O)OC(C)(C)C)CC2)c1 | inactive: 11.4%
85 | O=c1[nH]c2ccccc2n1C1CCN(C(c2ccccc2OC(F)(F)F)c2nnnn2C2CCCCC2)CC1 (configuration not stated) | inactive: -1.07%
86 | O=C(NCC1(N2CCCCC2)CCCCC1)c1ccc(Cl)nc1 | inactive: 3.07%
87 | O=C(NCC1(N2CCOCC2)CCCCC1)c1cc2ccccc2o1 | inactive: 6.4%
88 | COc1ccc(Cl)cc1C(=O)NCC1(N2CCOCC2)CCCCC1 | inactive: 0.88%

Row | Compound | activation
89 | O=c1[nH]c2ccccc2n1C1CCN(C(c2cc3ccccc3o2)c2nnnn2C2CCCCC2)CC1 (configuration not stated) | inactive: 0.85%
90 | O=C(OC1CN2CCC1CC2)C1c2ccccc2Oc2ccccc21 (configuration not stated) | inactive: -21.6%
91 | N#CC1(Nc2ccccc2)CCN(Cc2ccccc2)CC1 | inactive: 3.55%
92 | O=C(NCC1(N2CCCCC2)CCCCC1)c1ccc(Cl)s1 | inactive: -0.18%
93 | CCCCn1nnnc1C(c1ccc(OC)cc1)N1CCC(n2c(=O)[nH]c3ccccc32)CC1 (configuration not stated) | inactive: -25.8%
94 | CCOC(=O)N1CCC(Nc2ccc(OC)cc2)CC1 | inactive: 5.9%
95 | O=C1CCN(Cc2ccccc2)CC1 | inactive: 1.35%
96 | CC(C)(C)n1nnnc1C(c1ccccc1)N1CCC(n2c(=O)[nH]c3ccccc32)CC1 (configuration not stated) | inactive: -6.74%
97 | CCOc1ccc(C)cc1CN(CCCl)CCCl | inactive: -1.6%
98 | CCOC(=O)N1CCC(Nc2ccc(F)cc2)CC1 | inactive: 5.99%
99 | COc1ccc(NC2CCN(CCc3ccccc3)CC2)c(OC)c1 | inactive: 0.93%
100 | O=C(NCC1(N2CCCCC2)CCCCC1)c1ccc(F)cc1 | inactive: 0.71%
101 | CCCCOc1ccc(C(=O)NCC2(N3CCOCC3)CCCCC2)cc1 | inactive: 2.93%
102 | O=P1(N(CCCl)CCCl)SCCCS1 | inactive: 0.47%
103 | CCCCn1nnnc1C(c1cc2ccccc2o1)N1CCC(n2c(=O)[nH]c3ccccc32)CC1 (configuration not stated) | inactive: 1.2%
104 | O=c1[nH]c2ccccc2n1C1CCN(C(c2ccccc2)c2nnnn2C2CCCCC2)CC1 (configuration not stated) | inactive: 1.95%
105 | COc1cc(C(=O)NCC2(N(C)C)CCCCC2)ccc1OC(F)F | inactive: 6.19%
106 | CCOC(=O)N1CCC(Nc2cccc(C)c2)CC1 | inactive: 12.9%
107 | O=c1[nH]c2ccccc2n1C1CCN(C(c2cccc3ccccc23)c2nnnn2C2CCCC2)CC1 (configuration not stated) | inactive: 4.18%
